From article PMC6290062, “Characterization of a Novel, Cold-Adapted, and Thermostable Laccase-Like Enzyme With High Tolerance for Organic Solvents and Salt and Potent Dye Decolorization Ability, Derived From a Marine Metagenomic Library” (Frontiers in Microbiology, 2018)

System: CCn1c(=NN=c2sc3cc(S(=O)(=O)O)ccc3n2CC)sc2cc(S(=O)(=O)O)ccc21
Assay: purified protein
Details: 0.04 M Britton-Robinson buffer, pH 7.0, 60°C

Substance: Lac1326 (uncultured bacterium)
- Km: 210 µM
- kcat: 34.4 s⁻¹
- kcat/Km: 160000 M⁻¹ s⁻¹
